Results taken from ChEMBL document CHEMBL1908105, “UDP-glucuronosyltransferases and clinical drug-drug interactions” (Pharmacol Ther, 2005).

Chains of the proteins cited; added tags and fusions are not shown. Residues count along the entry.
UniProt P35503, 29-534 limits assumed: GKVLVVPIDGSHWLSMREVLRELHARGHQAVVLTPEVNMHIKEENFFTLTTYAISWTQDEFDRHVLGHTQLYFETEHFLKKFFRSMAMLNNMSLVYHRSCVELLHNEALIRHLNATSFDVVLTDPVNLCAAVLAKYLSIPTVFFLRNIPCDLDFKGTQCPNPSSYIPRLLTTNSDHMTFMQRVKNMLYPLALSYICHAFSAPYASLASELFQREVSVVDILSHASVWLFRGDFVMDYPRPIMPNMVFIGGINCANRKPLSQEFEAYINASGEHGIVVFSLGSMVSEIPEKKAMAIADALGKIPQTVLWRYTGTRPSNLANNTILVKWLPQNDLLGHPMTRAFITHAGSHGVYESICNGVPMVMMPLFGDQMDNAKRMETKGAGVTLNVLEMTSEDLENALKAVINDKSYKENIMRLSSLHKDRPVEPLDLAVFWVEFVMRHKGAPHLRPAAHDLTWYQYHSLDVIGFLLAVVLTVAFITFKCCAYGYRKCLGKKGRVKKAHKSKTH

Biological target: UDP-glucuronosyltransferase 1A3 (Homo sapiens, UniProt P35503)
Test: Drug glucuronidation reaction catalyzed by human recombinant UGT1A3

CO[C@]12CC[C@@]3(C[C@@H]1[C@](C)(O)C(C)(C)C)[C@H]1Cc4ccc(O)c5c4[C@@]3(CCN1)[C@H]2O5
Km: 19 µM
Vmax (pmol/min/mg protein): 129
